Experimental data as given in patent US20250214977A1, “STAT6 INHIBITORS AND USES THEREOF” (Kymera Therapeutics, Inc., priority 2024, published 2025).
Like-named read-outs stand apart in the source and are kept apart here.

The chains behind the UniProt entries cited, without tags or fusion partners. Residues count along the entry.
UniProt P42226, 123-632 limits assumed: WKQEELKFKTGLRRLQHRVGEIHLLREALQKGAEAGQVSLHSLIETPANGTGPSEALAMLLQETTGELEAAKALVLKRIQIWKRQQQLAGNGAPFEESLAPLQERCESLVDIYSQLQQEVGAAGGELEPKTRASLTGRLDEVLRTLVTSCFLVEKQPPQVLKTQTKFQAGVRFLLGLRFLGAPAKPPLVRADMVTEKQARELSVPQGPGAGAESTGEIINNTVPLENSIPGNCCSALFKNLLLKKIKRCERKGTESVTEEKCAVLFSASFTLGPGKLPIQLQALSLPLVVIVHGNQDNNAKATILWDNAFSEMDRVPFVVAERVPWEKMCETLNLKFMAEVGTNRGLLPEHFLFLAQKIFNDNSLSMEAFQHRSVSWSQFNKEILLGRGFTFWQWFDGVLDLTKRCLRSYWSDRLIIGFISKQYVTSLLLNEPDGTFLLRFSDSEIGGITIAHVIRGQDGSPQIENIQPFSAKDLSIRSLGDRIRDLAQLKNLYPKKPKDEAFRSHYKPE

Assays:
[1] = target: biotinylated truncated STAT6 (123-632)-avi (Homo sapiens, UniProt P42226); assay: Homogenous Time-Resolved Fluorescence (HTRF) binding assay; details: read-out: STAT6 HTRF: Average IC50, 0.15 nM biotinylated truncated STAT6 (123-632)-avi, 20 nM fluorescein-labeled probe
Description: Example 1. Homogenous Time-Resolved Fluorescence (HTRF) Binding Assay
HTRF binding assays were performed using 0.15 nM biotinylated truncated STAT6 (123-632)-avi purified from E. coli, 1× Streptavidin-terbium (CisBio) prepared by mixing SA-Tb in PPI detection buffer (CisBio), 20 nM proprietary fluorescein-labeled probe, and test compounds in assay buffer consisting of 50 mM HEPES-Na pH 7.5, 100 mM NaCl, 1 mM EDTA, 2 mM DTT, 0.1% Tween-20 with a final volume of 20 uL. Compound stocks were dissolved at 10 mM in 100% DMSO and 11 point titration with 3 fold serial dilution was performed in white, opaque 384 well microplates. Reaction plates were incubated at room temperature for 30 minutes. Plates were centrifuged at low rpm for 5 mins, and the ratio of fluorescence intensities were measured at emission wavelengths for fluorescein acceptor (520 nm) and terbium donor (495 nm) on Envision Plate reader. % Inhibition was calculated from the 520/495 ratio generated by using proprietary positive control compound for 100% inhibition and DMSO only reactions for 0% inhibition. Data was processed and dose response curves were generated using GraphPad Prism to determine the concentration required for inhibiting 50% of the HTRF signal (IC50).

[2] = tested on: Phosphorylation of STAT6 in human A549 cells; assay: Phosphorylated STAT6 (pSTAT6) flow cytometry assay in human A549 cells; details: read-out: STAT6 IL4 pSTAT6 assay in A549 cells: Average IC50
Description: Example 3. Phosphorylated STAT6 (pSTAT6) Flow Cytometry Assay in Human A549 Cells
Phosphorylation of STAT6 in human A549 cells was quantitatively measured using flow cytometry technology.

Row | Structure (SMILES) | IC50 ([1]; 30 minutes room temperature) | IC50 [2] | IC50 ([1]; 30 minutes at room temperature)
1 | COc1ccccc1-c1cc(C(=O)N(C)C)cc2cc(C3=CCCN(C(=O)CCn4ccnn4)C3)oc12 | < 100 nM |  | 
2 | COc1cccnc1N1CCN(C(=O)c2cc3c(-c4cccc5c4OCCO5)cc(C4=CCCN(C(=O)CCn5ccnn5)C4)c(F)c3[nH]2)CC1 |  | > 100000 nM | < 100 nM
3 | COc1cc(F)cnc1N1CCN(C(=O)c2cc3c(-c4ccccc4C#N)cc(C4=CCCN(C(=O)CCn5ccnn5)C4)c(F)c3[nH]2)CC1 |  | < 100 nM | < 100 nM
4 | COc1ccc(C)cc1-c1cc(C2=CCCN(C(=O)[C@@H]3Cc4ccccc4CN3C=O)C2)cc2cc(C(=O)N(C)C)oc12 (single isomer, unassigned) | 1000 to 10000 nM |  | 
5 | COc1ccccc1-c1cc(C2=CCCN(C(=O)CCn3ccnn3)C2)c(F)c2[nH]c(C(=O)N3CCc4c(o[nH]c4=O)C3)cc12 |  | < 100 nM | < 100 nM
6 | COc1ccccc1-c1cc(C2=CCCN(C(=O)CCn3ccnn3)C2)c(F)c2[nH]c(C(=O)N3CCN(c4ccn5nncc5c4)CC3)cc12 |  | < 100 nM | < 100 nM
7 | CCc1cc(C)c(-c2cc(C3=CCCN(C(=O)CCn4ccnn4)C3)c(F)c3[nH]c(C(=O)N4CCN(C5CC5)CC4)cc23)cn1 |  | < 100 nM | < 100 nM
8 | COc1ccncc1-c1cc(C2=CCCN(C(=O)CCc3nccs3)C2)c(F)c2[nH]c(C(=O)N3CCN(c4ncc(F)cc4OC)CC3)cc12 |  | 10000 to 100000 nM | 10000 to 100000 nM
9 | COc1ccccc1-c1cc(C2=CCCN(C(=O)CCn3ccnn3)C2)c(F)c2[nH]c(C(=O)N3CCC[C@H](C(N)=O)C3)cc12 |  | < 100 nM | < 100 nM
10 | COc1cc(F)cnc1N1CCN(C(=O)c2cc3c(C4=C[C@H](C)O[C@H](C)C4)cc(C4=CCCN(C(=O)CCn5ccnn5)C4)c(F)c3[nH]2)CC1 (relative stereo) |  | < 100 nM | < 100 nM
11 | CN(C)C(=O)c1cc2c(F)c(C3=CCCN(C(=O)CCn4ccnn4)C3)cc(-c3ccccc3)c2o1 | < 100 nM |  | 
12 | COc1ccccc1-c1cc(C2=CCCN(C(=O)CCn3ccnn3)C2)c(F)c2cc(N3CCCCC3=O)oc12 | < 100 nM |  | 
13 | CCc1ccc(-c2cc(C3=CCCN(C(=O)CCn4ccnn4)C3)c(F)c3[nH]c(C(=O)N4CCN(c5nc(C)c(F)cc5OC)CC4)cc23)c(C)n1 |  | > 100000 nM | > 100000 nM
14 | CCc1nc(C)ccc1-c1cc(C(=O)N2Cc3cnn(C)c3C2)cc2c(F)c([C@H]3CCCN(C(=O)CCn4ccnn4)C3)n(CC3CC3)c12 (single isomer, unassigned) | 1000 to 10000 nM |  | 
15 | COc1ccncc1-c1cc(C2=CCCN(C(=O)CCn3ccnn3)C2)c(F)c2[nH]c(C(=O)N3CCN(c4nc(C)c(OC)cc4OC)CC3)cc12 |  | < 100 nM | < 100 nM
16 | CCc1nc(C)ccc1-c1cc(C(=O)N2CCN(C3CC3)CC2)cc2c(F)c(C3CCCN(C(=O)CCc4nccs4)C3)n(CC3CC3)c12 (single isomer, unassigned) | 1000 to 10000 nM |  | 
17 | CCc1ccncc1-c1cc([C@H]2CCCN(C(=O)CCn3ccnn3)C2)c(F)c2[nH]c(C(=O)N3Cc4cnn(C)c4C3)cc12 (single isomer, unassigned) |  | 10000 to 100000 nM | 10000 to 100000 nM
18 | COc1cc(N(C)C)ccc1-c1cc(C2=CCCN(C(=O)CCn3ccnn3)C2)c(F)c2[nH]c(C(=O)N3CCN(C4CC4)CC3)cc12 |  | < 100 nM | < 100 nM
19 | CC(C)Oc1ncccc1-c1cc(C2=CCCN(C(=O)CCn3ccnn3)C2)cc2cc(C(=O)N(C)C)oc12 | < 100 nM |  | 
20 | COc1ccccc1-c1cc(C(=O)N(C)C)cc2c(F)c(C3=CCCN(C(=O)CCn4ccnn4)C3)[nH]c12 | < 100 nM |  | 
21 | CC(C#N)CNC(=O)c1cc2ccc(C3=CCCN(C(=O)CCn4ccnn4)C3)c(F)c2[nH]1 (stereo not shown) | 1000 to 10000 nM |  | 
22 | CCc1cnccc1-c1cc(C(=O)N2Cc3cnn(C)c3C2)cc2c(F)c([C@@H]3CCCN(C(=O)CCn4ccnn4)C3)n(CC3CC3)c12 (single isomer, unassigned) | 1000 to 10000 nM |  | 
23 | CCc1nc(C)ccc1-c1cc(C(=O)N2Cc3cnn(C)c3C2)cc2c(F)c([C@@H]3CCCN(C(=O)CCn4ccnn4)C3)n(CC3CC3)c12 (single isomer, unassigned) | 1000 to 10000 nM |  | 
24 | COc1ccccc1-c1cc(C2=CCCN(C(=O)CCn3ccnn3)C2)c(F)c2[nH]c(C(=O)N3CCN(c4cc(F)cc(F)c4OC)CC3)cc12 [Example I-357] |  |  | < 100 nM
25 | COc1ccccc1-c1cc(C2=CCCN(C(=O)CCn3ccnn3)C2)c(F)c2[nH]c(C(=O)N3CC[C@@H](N4CCOCC4)C3)cc12 (single isomer, unassigned) | < 100 nM |  | 
26 | COc1cncc(C)c1-c1cc(C2=CCCN(C(=O)CCn3ccnn3)C2)c(F)c2[nH]c(C(=O)N(C)C)cc12 | < 100 nM |  | 
27 | COc1ccccc1-c1cc(C2=CCCN(C(=O)CCn3ccnn3)C2)c(F)c2[nH]c(C(=O)N3CCC[C@H](OC)C3)cc12 (single isomer, unassigned) | 100 to 1000 nM |  | 
28 | COc1ccccc1-c1cc(C2=CCCN(C(=O)CCn3ccnn3)C2)c(F)c2cc(-n3cccn3)oc12 | < 100 nM |  | 

Row | Structure (SMILES) | IC50 ([1]; 30 minutes room temperature) | IC50 [2] | IC50 ([1]; 30 minutes at room temperature)
29 | CN(C)C(=O)c1nc2ccc(C3=CCCN(C(=O)CCn4ccnn4)C3)cc2o1 | 10000 to 100000 nM |  | 
30 | COc1ccccc1-c1cc(C2=CCCN(C(=O)CCn3ccnn3)C2)c(F)c2[nH]c(C(=O)N3CCN(C)C(=O)[C@H]3C)cc12 (single isomer, unassigned) | 100 to 1000 nM |  | 
31 | COc1ccccc1-c1cc(C2=CCCN(C(=O)CCn3ccnn3)C2)c(F)c2[nH]c(C(=O)N3CCN(c4cccc5nncn45)CC3)cc12 |  |  | < 100 nM
32 | COc1ccccc1-c1cc(C2=CCCN(C(=O)CCn3ccnn3)C2)c(F)c2[nH]c(C(=O)N3CCN(c4ccc(Cl)nn4)CC3)cc12 | < 100 nM |  | 
33 | COc1ccccc1-c1cc(C2=CCCN(C(=O)CCn3ccnn3)C2)c(F)c2[nH]c(C(=O)N3CCN(C4CCN(C)CC4)CC3)cc12 | < 100 nM |  | 
34 | COc1ccccc1-c1cc(C2=CCCN(C(=O)CCn3ccnn3)C2)c(F)c2cc(C(=O)N(C)C)oc12 | < 100 nM |  | 
35 | COc1ccccc1-c1cc(-c2nccn2C)cc2cc(C3=CCCN(C(=O)CCn4ccnn4)C3)[nH]c12 | < 100 nM |  | 
36 | CN(C)C(=O)c1cc2ccc([C@H]3CCCN(C(=O)NCc4ccc(C(N)=O)cc4)C3)c(F)c2[nH]1 (single isomer, unassigned) | 1000 to 10000 nM |  | 
37 | COc1ccccc1-c1cc(C2=CCCN(C(=O)CCn3ccnn3)C2)c(F)c2[nH]ncc12 | < 100 nM |  | 
38 | COc1ccccc1-c1cc(C(=O)N(C)C)cc2sc(C3=CCCN(C(=O)CCn4ccnn4)C3)nc12 | < 100 nM |  | 
39 | CCc1nc(C)ccc1-c1cc(C(=O)N2Cc3cnn(C)c3C2)cc2c(F)c(C3CCCN(C(=O)CCc4nccs4)C3)n(CC3CC3)c12 (single isomer, unassigned) | 1000 to 10000 nM |  | 
40 | CN(C)C(=O)c1cc2ccc(C3CCCN(C(=O)NCc4ccc(C(N)=O)cc4)C3)c(F)c2[nH]1 (stereo not shown) | < 100 nM |  | 
41 | COc1ccccc1-c1cc(C2=CCCN(C(=O)CCn3ccnn3)C2)c(F)c2[nH]c(C(=O)N[C@@H]3C=CS(=O)(=O)C3)cc12 (single isomer, unassigned) | 100 to 1000 nM |  | 
42 | CN(C)C(=O)c1cc(-c2ccccc2)c2[nH]c(C3=CCCN(C(=O)CCn4ccnn4)C3)cc2c1 | < 100 nM |  | 
43 | COc1ccccc1-c1cc(-c2ncccc2C)cc2cc(C3=CCCN(C(=O)CCn4ccnn4)C3)[nH]c12 | 100 to 1000 nM |  | 
44 | COc1ccccc1-c1cc(C2=CCCN(C(=O)CCn3ccnn3)C2)c(F)c2[nH]c(C(=O)N3CC(=O)NC[C@H]3C)cc12 | 100 to 1000 nM |  | 
45 | O=C(CCn1ccnn1)N1CCC=C(c2ccc3cc(C(=O)N4CCOC[C@@H](O)C4)[nH]c3c2F)C1 | 1000 to 10000 nM |  | 
46 | CC(=O)N1CCC[C@H](c2cc(-c3ccc(N4CCNCC4)cc3Cl)c3cc(C(=O)N(C)C)[nH]c3c2F)C1 (single isomer, unassigned) | 100 to 1000 nM |  | 
47 | COc1ccccc1-c1cc(C2=CCCN(C(=O)CCn3ccnn3)C2)c(F)c2[nH]c(C(=O)N3CCN(c4cn5ccnc5cn4)CC3)cc12 | < 100 nM |  | 
48 | COc1ccccc1-c1cc(C2=CCCN(C(=O)CCn3ccnn3)C2)c(F)c2[nH]c(C(=O)N3CCC[C@H](C(=O)N4CCCC4)C3)cc12 (single isomer, unassigned) | < 100 nM |  | 
49 | COc1ccccc1-c1cc(C2=CCCN(C(=O)CCn3ccnn3)C2)c(F)c2[nH]c(C(=O)N3CCOC[C@H]3C)cc12 (single isomer, unassigned) | < 100 nM |  | 
50 | COc1ccccc1-c1cc(C2=CCCN(C(=O)CCn3ccnn3)C2)c(F)c2cc(C(F)F)oc12 | 1000 to 10000 nM |  | 
51 | COc1ccccc1-c1cc(C2=CCCN(C(=O)CCn3ccnn3)C2)c(F)c2cc(N3CCCC3=O)oc12 | < 100 nM |  | 
52 | CCc1nc(C)ccc1-c1cc(C(=O)N2CCN(c3ncc(F)cc3OC)CC2)cc2c(F)c(C3CCCN(C(=O)C(=O)O)C3)n(CC3CC3)c12 (stereo not shown) [Example I-1335] | 1000 to 10000 nM |  | 
53 | CCc1nc(C)ccc1-c1cc(C(=O)N2CCN(C3CC3)CC2)cc2c(F)c(C3CCCN(C(=O)CCn4ccnn4)C3)n(CC3CC3)c12 (single isomer, unassigned) | 1000 to 10000 nM |  | 
54 | COc1ccccc1-c1cc(C2=CCCN(C(=O)CCn3ccnn3)C2)c(F)c2[nH]c(C(=O)N3CCCC[C@@H]3CO)cc12 (single isomer, unassigned) | < 100 nM |  | 
55 | O=C(CCn1ccnn1)N1CCC[C@@H](c2nc3cc(-n4ccccc4=O)ccc3o2)C1 (single isomer, unassigned) | 10000 to 100000 nM |  | 
